One compound from paper PMC7161708 (Acta Pharmaceutica Sinica. B, 2019) can be followed below.

This assay concerns Aβ40/42. The assay can be described thus: Aβ40/42 level in brain of APP/PS1 transgenic mice, ELISA. It is filed as in vivo. The note with it: oral, 100 days, compared with TV group. In general terms: In an ELISA, binding on a coated surface is turned into a signal by an enzyme label.

On to `CC(=O)Oc1ccccc1C(=O)Nc1ncc([N+](=O)[O-])s1` [NTZ, nitazoxanide, reference compound], for which the “Aβ40/42 level in cerebral cortex and hippocampus (ELISA)” value is “significantly reduced Aβ40/42 level”.
